Experimental data published in patent US9458198B1, “Cyclic peptide-based NPR-B agonists” (priority 2009, dated 2016).

Molecular target: T1, NPR-B (Homo sapiens, UniProt P20594)
T1 construct: a functional assay using endogenously NPR-B expressing GTM-3 cells; endogenous in cells; host or cells: GTM-3 (transformed human trabecular meshwork cells)
T1 sequence (P20594 23-1047): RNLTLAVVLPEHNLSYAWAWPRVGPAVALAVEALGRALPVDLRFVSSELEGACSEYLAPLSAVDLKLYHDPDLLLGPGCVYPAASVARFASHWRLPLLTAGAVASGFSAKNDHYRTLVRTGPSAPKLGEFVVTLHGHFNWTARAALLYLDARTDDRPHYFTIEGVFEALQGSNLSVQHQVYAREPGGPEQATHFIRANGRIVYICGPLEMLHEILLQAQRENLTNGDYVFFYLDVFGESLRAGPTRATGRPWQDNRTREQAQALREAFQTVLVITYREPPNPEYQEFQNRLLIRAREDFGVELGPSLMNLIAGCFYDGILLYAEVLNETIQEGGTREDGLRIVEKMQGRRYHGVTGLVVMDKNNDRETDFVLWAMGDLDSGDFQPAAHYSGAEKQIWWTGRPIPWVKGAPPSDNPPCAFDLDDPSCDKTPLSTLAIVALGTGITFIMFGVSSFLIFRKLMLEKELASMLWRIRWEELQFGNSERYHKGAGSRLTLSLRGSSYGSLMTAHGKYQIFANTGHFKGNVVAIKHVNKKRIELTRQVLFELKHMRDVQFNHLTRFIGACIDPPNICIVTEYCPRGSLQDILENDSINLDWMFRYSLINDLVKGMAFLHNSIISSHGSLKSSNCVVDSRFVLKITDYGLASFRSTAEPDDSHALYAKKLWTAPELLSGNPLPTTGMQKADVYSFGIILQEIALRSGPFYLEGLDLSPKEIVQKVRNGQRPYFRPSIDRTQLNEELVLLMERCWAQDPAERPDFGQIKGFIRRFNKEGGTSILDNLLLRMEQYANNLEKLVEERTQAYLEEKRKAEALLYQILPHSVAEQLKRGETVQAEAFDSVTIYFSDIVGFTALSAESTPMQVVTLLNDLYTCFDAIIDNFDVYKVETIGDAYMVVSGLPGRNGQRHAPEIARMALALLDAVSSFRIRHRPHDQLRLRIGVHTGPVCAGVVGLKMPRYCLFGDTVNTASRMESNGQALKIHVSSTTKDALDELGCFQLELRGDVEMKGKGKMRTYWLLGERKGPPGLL
Assay: NPR-B induced production of cyclic GMP in GTM-3 cells
Type: cell-based
Conditions: group needs both EC50 and Emax criteria, checked A then B then C, read-out: Activity (group): NPR-B activation, EC50 and Emax (CNP = 100%)
Procedure: The efficacy and potency of compounds to activate NPR-B were evaluated in a functional assay using endogenously NPR-B expressing GTM-3 cells (Pang et al. 1994, Curr Eye Res 13:51-63). In this assay the dose dependent production of cyclic GMP (cGMP) is determined and Emax (maximum activation) and EC50 values are calculated.
The cell culture medium is aspirated and each well is washed with 200 μl DMEM/Ham's F12=Medium (Gibco). Then, 200 μl Medium supplemented with 1 mM IBMX (3-Isobutyl-1-methyl-xanthin, Sigma) is added to each well and incubated for 15 min. at room temperature.
Final compound concentrations are in the range from 45 μM to 20 nM.

| EC50 | SMILES |
| --- | --- |
| < 5 µM | CC[C@H](C)[C@@H]1NC(=O)[C@H](CCCNC(=N)N)NC(=O)[C@H](CC(=O)O)NC(=O)[C@H](CC(C)C)NC(=O)[C@H](CCCCN)NC(=O)[C@H](CC(C)C)NC(=O)CNC(=O)[C@H](Cc2ccccc2)NC(=O)CCNC(=O)[C@@H](NC(=O)[C@@H](N)CCSC)CSSC[C@@H](C(N)=O)NC(=O)[C@H](CO)NC1=O [compound 31] |
| < 5 µM | CC[C@H](C)[C@@H]1NC(=O)[C@H](CCCNC(=N)N)NC(=O)[C@H](CC(=O)O)NC(=O)[C@H](CC(C)C)NC(=O)[C@H](CCN)NC(=O)[C@H](CC(C)C)NC(=O)CNC(=O)[C@H](Cc2ccccc2)NC(=O)[C@@H](C)NC(=O)[C@@H](NC(=O)[C@@H](N)CCSC)CSSC[C@@H](C(N)=O)NC(=O)[C@H](CO)NC1=O [compound 50] |
| < 5 µM | CC[C@H](C)[C@@H]1NC(=O)[C@H](CCCNC(=N)N)NC(=O)[C@H](CC(=O)O)NC(=O)[C@H](CC(C)C)NC(=O)[C@H](CCCN)NC(=O)[C@H](CC(C)C)NC(=O)CNC(=O)[C@H](Cc2ccccc2)NC(=O)[C@@H](C)NC(=O)[C@@H](NC(=O)[C@@H](N)CCSC)CSSC[C@@H](C(N)=O)NC(=O)[C@H](CO)NC1=O [compound 51] |
| < 5 µM | CC[C@H](C)[C@@H]1NC(=O)[C@H](CCCNC(=N)N)NC(=O)[C@H](CC(=O)O)NC(=O)[C@H](CC(C)C)NC(=O)[C@H](CCCCCN)NC(=O)[C@H](CC(C)C)NC(=O)CNC(=O)[C@H](Cc2ccccc2)NC(=O)[C@@H](C)NC(=O)[C@@H](NC(=O)[C@@H](N)CCSC)CSSC[C@@H](C(N)=O)NC(=O)[C@H](CO)NC1=O [compound 52] |
| < 5 µM | CC[C@H](C)[C@@H]1NC(=O)[C@H](CCCNC(=N)N)NC(=O)[C@H](CC(=O)O)NC(=O)[C@H](CC(C)C)NC(=O)[C@H](CCCCN)NC(=O)[C@H](CC(C)C)NC(=O)CNC(=O)[C@H](Cc2ccccc2)NC(=O)[C@@H](C)NC(=O)[C@@H](NC(=O)[C@@H](N)CCSC)CSSC[C@@H](C(N)=O)NC(=O)CCNC1=O [compound 58] |
| < 1 µM | CC[C@H](C)[C@@H]1NC(=O)[C@H](CCCNC(=N)N)NC(=O)[C@H](CC(=O)O)NC(=O)[C@H](CC(C)C)NC(=O)[C@H](CCCCN)NC(=O)[C@H](CC(C)C)NC(=O)CNC(=O)[C@H](Cc2ccccc2)NC(=O)[C@@H](C)NC(=O)[C@@H](NC(=O)[C@@H](N)CCSC)CSSCCNC(=O)[C@H](CO)NC1=O [compound 61] |

The next lines start with the compound.

| SMILES | EC50 |
| --- | --- |
| CC[C@H](C)[C@@H]1NC(=O)[C@H](CCCNC(=N)N)NC(=O)[C@H](CC(=O)O)NC(=O)[C@H](CC(C)C)NC(=O)[C@H](CCCCN)NC(=O)[C@H](CC(C)C)NC(=O)CNC(=O)[C@H](Cc2ccccc2)NC(=O)[C@H](Cc2c[nH]cn2)NC(=O)[C@@H](NC(=O)[C@H](CCSC)NC(C)=O)CSSC[C@@H](C(N)=O)NC(=O)[C@H](CO)NC1=O [compound 14] | < 5 µM |
| CC[C@H](C)[C@@H]1NC(=O)[C@H](CCCNC(=N)N)NC(=O)[C@H](CC(=O)O)NC(=O)[C@H](CC(C)C)NC(=O)[C@H](CCCCN)NC(=O)[C@H](CC(C)C)NC(=O)C(C)(C)NC(=O)[C@H](Cc2ccccc2)NC(=O)[C@@H](Cc2c[nH]cn2)NC(=O)[C@@H](NC(=O)[C@@H](N)CCSC)CSSC[C@@H](C(N)=O)NC(=O)[C@H](CO)NC1=O [compound 36] | < 5 µM |
| CSCC[C@H](N)C(=O)N[C@H]1CSSC[C@@H](C(N)=O)NC(=O)[C@H](CO)NC(=O)[C@H](C(C)(C)C)NC(=O)[C@H](CCCNC(=N)N)NC(=O)[C@H](CC(=O)O)NC(=O)[C@H](CC(C)C)NC(=O)[C@H](CCCCN)NC(=O)[C@H](CC(C)C)NC(=O)CNC(=O)[C@H](Cc2ccccc2)NC(=O)[C@@H](Cc2c[nH]cn2)NC1=O [compound 43] | < 5 µM |
| CC[C@H](C)[C@@H]1NC(=O)[C@H](CCCNC(=N)N)NC(=O)[C@H](CC(=O)O)NC(=O)[C@H](CC(C)C)NC(=O)[C@H](CCCCN)NC(=O)[C@H](CC(C)C)NC(=O)CNC(=O)[C@H](Cc2ccccc2)NC(=O)[C@@H](Cc2cccs2)NC(=O)[C@@H](NC(=O)[C@@H](N)CCSC)CSSC[C@@H](C(N)=O)NC(=O)[C@H](CO)NC1=O [compound 44] | < 5 µM |
| CC[C@H](C)[C@@H]1NC(=O)[C@H](CCCNC(=N)N)NC(=O)[C@H](CC(=O)O)NC(=O)[C@H](CC(C)C)NC(=O)[C@H](CCCCN)N(C)C(=O)[C@H](CC(C)C)NC(=O)CNC(=O)[C@H](Cc2ccccc2)NC(=O)[C@@H](Cc2c[nH]cn2)NC(=O)[C@@H](NC(=O)[C@@H](N)CCSC)CSSC[C@@H](C(N)=O)NC(=O)[C@H](CO)NC1=O [compound 46] | < 5 µM |
| CC[C@H](C)[C@@H]1NC(=O)[C@H](CCCNC(=N)N)NC(=O)[C@H](CC(=O)O)NC(=O)[C@H](CC(C)C)N(C)C(=O)[C@H](CCCCN)NC(=O)[C@H](CC(C)C)NC(=O)CNC(=O)[C@H](Cc2ccccc2)NC(=O)[C@@H](Cc2c[nH]cn2)NC(=O)[C@@H](NC(=O)[C@@H](N)CCSC)CSSC[C@@H](C(N)=O)NC(=O)[C@H](CO)NC1=O [compound 47] | < 5 µM |
| CC[C@H](C)[C@@H]1NC(=O)[C@H](CCCNC(=N)N)N(C)C(=O)[C@H](CC(=O)O)NC(=O)[C@H](CC(C)C)NC(=O)[C@H](CCCCN)NC(=O)[C@H](CC(C)C)NC(=O)CNC(=O)[C@H](Cc2ccccc2)NC(=O)[C@@H](Cc2c[nH]cn2)NC(=O)[C@@H](NC(=O)[C@@H](N)CCSC)CSSC[C@@H](C(N)=O)NC(=O)[C@H](CO)NC1=O [compound 48] | < 5 µM |
| CC[C@H](C)[C@@H]1NC(=O)[C@H](CCCNC(=N)N)NC(=O)[C@H](CS(=O)(=O)O)NC(=O)[C@H](CC(C)C)NC(=O)[C@H](CCCCN)NC(=O)[C@H](CC(C)C)NC(=O)CNC(=O)[C@H](Cc2ccccc2)NC(=O)[C@@H](C)NC(=O)[C@@H](NC(=O)[C@@H](N)CCSC)CSSC[C@@H](C(N)=O)NC(=O)[C@H](CO)NC1=O [compound 55] | < 5 µM |
| CC[C@H](C)[C@@H]1NC(=O)[C@H](CCCNC(=N)N)NC(=O)[C@H](CC(=O)O)NC(=O)[C@H](CC(C)C)NC(=O)[C@H](CCCCN)NC(=O)[C@H](CC(C)C)NC(=O)CNC(=O)[C@H](Cc2ccccc2)NC(=O)[C@@H](C)NC(=O)[C@@H](NC(=O)[C@@H](N)CCSC)CCSSC[C@@H](C(N)=O)NC(=O)[C@H](CO)NC1=O [compound 59] | < 5 µM |
| CC[C@H](C)[C@@H]1NC(=O)[C@H](CCCNC(=N)N)NC(=O)[C@H](CC(=O)O)NC(=O)[C@H](CC(C)C)NC(=O)[C@H](CCCCN)NC(=O)[C@H](CC(C)C)NC(=O)CNC(=O)[C@H](Cc2ccccc2)NC(=O)[C@@H](C)NC(=O)[C@@H](NC(=O)[C@@H](N)CCSC)CCSSCC[C@@H](C(N)=O)NC(=O)[C@H](CO)NC1=O [compound 60] | < 5 µM |
| CC[C@H](C)[C@@H]1NC(=O)[C@H](CCCNC(=N)N)NC(=O)[C@H](CC(=O)O)NC(=O)[C@H](CC(C)C)NC(=O)[C@@]2(C)CCCN2C(=O)[C@H](CC(C)C)NC(=O)CNC(=O)[C@H](Cc2ccccc2)NC(=O)[C@@H](C)NC(=O)[C@@H](NC(=O)[C@@H](N)CCSC)CSSC[C@@H](C(N)=O)NC(=O)[C@H](CO)NC1=O [compound 74] | < 5 µM |
| CCCCCC(=O)N[C@H]1CSSC[C@@H](C(N)=O)NC(=O)[C@H](CO)NC(=O)[C@H]([C@@H](C)CC)NC(=O)[C@H](CCCNC(=N)N)NC(=O)[C@H](CC(=O)O)NC(=O)[C@H](CC(C)C)NC(=O)[C@@H]2CCN2C(=O)[C@H](CC(C)C)NC(=O)CNC(=O)[C@H](Cc2ccccc2)NC(=O)[C@@H](C)NC1=O [compound 75] | < 5 µM |
